Where two headings read alike, the source gives them in different places.
Molecular target: PI3Kα H1047R (T47D cells) (Homo sapiens, UniProt P42336, H1047R)
Assay: PI3Kα cellular assay: pAKT HTRF in T47D cells after EGF stimulation
Assay type: cell-based
Settings: for IC50: read-out: T47D pAKT S473 HTRF IC50 (H1047R): Average IC50, T47D cells (PI3Kα H1047R), pAKT S473 HTRF
[1] = 1 hr compound, 20 ng/ml EGF 10 min
[2] = selectivity T47D (H1047R) over SKBR3 (WT), pAKT HTRF
[3] = selectivity of T47D (H1047R) over SKBR3 (WT) pAKT IC50

Sequences of proteins named here, by UniProt entry; tags and fusion partners are left off.
UniProt P42336, whole entry H1047R: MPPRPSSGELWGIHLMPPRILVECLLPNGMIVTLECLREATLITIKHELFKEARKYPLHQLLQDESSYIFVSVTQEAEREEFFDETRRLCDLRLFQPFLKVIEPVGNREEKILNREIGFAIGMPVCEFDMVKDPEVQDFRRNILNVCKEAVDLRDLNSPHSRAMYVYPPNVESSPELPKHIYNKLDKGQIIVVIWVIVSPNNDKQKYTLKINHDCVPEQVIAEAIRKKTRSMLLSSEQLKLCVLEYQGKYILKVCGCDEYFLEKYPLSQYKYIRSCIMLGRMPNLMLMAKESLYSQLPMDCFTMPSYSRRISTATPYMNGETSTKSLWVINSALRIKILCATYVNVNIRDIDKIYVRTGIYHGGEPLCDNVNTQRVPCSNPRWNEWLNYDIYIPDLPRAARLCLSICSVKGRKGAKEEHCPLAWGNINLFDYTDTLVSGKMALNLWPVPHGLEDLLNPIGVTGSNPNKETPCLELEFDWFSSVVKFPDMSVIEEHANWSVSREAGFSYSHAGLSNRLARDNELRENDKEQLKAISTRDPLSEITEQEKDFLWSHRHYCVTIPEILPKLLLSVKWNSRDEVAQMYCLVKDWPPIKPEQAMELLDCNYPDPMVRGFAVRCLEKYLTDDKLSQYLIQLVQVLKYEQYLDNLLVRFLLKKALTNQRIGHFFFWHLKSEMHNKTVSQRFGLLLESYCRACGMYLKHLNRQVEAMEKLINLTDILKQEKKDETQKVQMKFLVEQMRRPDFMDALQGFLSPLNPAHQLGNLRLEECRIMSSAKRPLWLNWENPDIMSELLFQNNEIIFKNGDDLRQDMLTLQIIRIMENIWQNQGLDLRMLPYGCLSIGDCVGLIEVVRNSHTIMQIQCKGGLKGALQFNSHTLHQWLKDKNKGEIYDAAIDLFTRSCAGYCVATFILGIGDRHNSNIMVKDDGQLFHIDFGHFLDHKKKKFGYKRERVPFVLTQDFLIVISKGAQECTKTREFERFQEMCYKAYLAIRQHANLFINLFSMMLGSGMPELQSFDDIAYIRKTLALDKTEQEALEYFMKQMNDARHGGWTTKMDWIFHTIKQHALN
UniProt P27986, whole entry partner: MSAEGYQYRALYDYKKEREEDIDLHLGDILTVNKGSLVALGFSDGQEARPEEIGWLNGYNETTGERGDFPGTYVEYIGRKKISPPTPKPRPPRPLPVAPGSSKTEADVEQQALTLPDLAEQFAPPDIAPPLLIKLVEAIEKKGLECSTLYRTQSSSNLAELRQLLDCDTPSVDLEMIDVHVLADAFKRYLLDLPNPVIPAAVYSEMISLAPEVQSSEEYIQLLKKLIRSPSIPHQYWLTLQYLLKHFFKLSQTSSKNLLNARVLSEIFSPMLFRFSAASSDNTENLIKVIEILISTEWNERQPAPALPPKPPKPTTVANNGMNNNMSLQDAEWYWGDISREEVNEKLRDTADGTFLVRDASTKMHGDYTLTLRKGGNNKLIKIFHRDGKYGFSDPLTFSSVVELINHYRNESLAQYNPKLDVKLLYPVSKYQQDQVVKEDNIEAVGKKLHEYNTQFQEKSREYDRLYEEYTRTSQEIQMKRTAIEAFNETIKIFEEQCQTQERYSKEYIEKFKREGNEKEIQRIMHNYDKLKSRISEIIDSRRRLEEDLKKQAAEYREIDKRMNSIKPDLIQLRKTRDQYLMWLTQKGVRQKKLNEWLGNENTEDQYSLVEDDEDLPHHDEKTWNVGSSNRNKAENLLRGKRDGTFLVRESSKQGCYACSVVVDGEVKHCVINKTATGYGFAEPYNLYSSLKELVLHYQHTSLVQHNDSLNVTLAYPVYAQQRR

Cc1cc([C@H](C)Nc2c(C(=O)O)cnn2C)c2nc(N3CCOCC3)cc(=O)n2c1
IC50 [1]: > 2000 nM
T47D pAKT S473 HTRF IC50 (H1047R): T47D (H1047R) selectivity over SKBR3 (WT) [2]: C (C denotes ≤5-fold)

Cc1cc([C@H](C)Nc2ccccc2C2(O)COC2)c2nc(-c3cccc(F)c3)c(C)c(=O)n2c1
IC50 (EGF stimulation): > 2000 nM
T47D pAKT S473 HTRF IC50 (H1047R): T47D (H1047R) selectivity over SKBR3 (WT) [2]: C (C denotes ≤5-fold)

Cc1cc([C@@H](C)Oc2ccccc2C(=O)O)c2nc(C#Cc3ccccc3)c(C)c(=O)n2c1
IC50 (EGF stimulation): < 100 nM
T47D pAKT S473 HTRF IC50 (H1047R): T47D (H1047R) selectivity over SKBR3 (WT) [2]: A (A denotes >20-fold)

Cc1cc([C@H](C)Nc2ccccc2S(N)(=O)=O)c2nc(N3Cc4ccccc4[C@@H]3C)c(C)c(=O)n2c1
IC50 (EGF stimulation): 100 to 500 nM
T47D pAKT S473 HTRF IC50 (H1047R): T47D (H1047R) selectivity over SKBR3 (WT) [2]: A (A denotes >20-fold)

Cc1cc(C(C)Nc2ccccc2C(=O)O)c2nc(-c3ccc(C(C)(F)F)cc3)cc(=O)n2c1 (centres unmarked)
IC50 [1]: 100 to 500 nM
T47D pAKT S473 HTRF IC50 (H1047R): T47D (H1047R) selectivity over SKBR3 (WT) [2]: A (A denotes >20-fold)

Cc1cc([C@H](C)Nc2ccccc2C(=O)O)c2nc(-c3cnc(C)c(C(F)(F)F)c3)c(C)c(=O)n2c1
IC50 (EGF stimulation): 100 to 500 nM
T47D pAKT S473 HTRF IC50 (H1047R): T47D (H1047R) selectivity over SKBR3 (WT) [2]: A (A denotes >20-fold)

Cc1cc([C@@H](C)Nc2ccccc2C(=O)O)c2nc(-c3ccc4[nH]c(=O)sc4c3)cc(=O)n2c1
IC50 [1]: < 100 nM
T47D pAKT S473 HTRF IC50 (H1047R): T47D (H1047R) selectivity over SKBR3 (WT) [2]: A (A denotes >20-fold)

Cc1cc([C@H](C)Nc2ccccc2C(=O)O)c2nc(-c3ccc(C(C)C)nc3)c(C)c(=O)n2c1
IC50 (EGF stimulation): 500 to 2000 nM

Cc1cc([C@H](C)Nc2ccccc2-c2ccnnc2)c2nc(-c3cnc(C)c(Cl)c3)c(C)c(=O)n2c1
IC50 (EGF stimulation): 100 to 500 nM
T47D pAKT S473 HTRF IC50 (H1047R): T47D (H1047R) selectivity over SKBR3 (WT) [2]: A (A denotes >20-fold)

Cc1cc([C@@H](C)Nc2ccccc2C(=O)O)c2nc(-n3cc(C(N)=O)c4ccccc43)cc(=O)n2c1
IC50 [1]: 500 to 2000 nM

Cc1cc([C@H](C)Nc2ccccc2-c2ccnnc2)c2nc(N3Cc4ccccc4C3)cc(=O)n2c1
IC50 (EGF stimulation): 100 to 500 nM
T47D pAKT S473 HTRF IC50 (H1047R): T47D (H1047R) selectivity over SKBR3 (WT) [3]: A (A denotes >20-fold)

CONC(=O)c1ccc(-c2cc(=O)n3cc(C)cc(C(C)Nc4ccccc4C(=O)O)c3n2)cc1 (centres unmarked)
IC50 [1]: 500 to 2000 nM

Cc1cc([C@H](C)Nc2ccccc2C(=O)O)c2nc(N3Cc4ccccc4[C@@H]3C)cc(=O)n2c1
IC50 (EGF stimulation): < 100 nM
T47D pAKT S473 HTRF IC50 (H1047R): T47D (H1047R) selectivity over SKBR3 (WT) [3]: A (A denotes >20-fold)

Cc1cc([C@@H](C)Nc2ccc(C(F)(F)F)nc2C(=O)O)c2nc(-c3cccc(F)c3)c(C)c(=O)n2c1
IC50 (EGF stimulation): > 2000 nM
T47D pAKT S473 HTRF IC50 (H1047R): T47D (H1047R) selectivity over SKBR3 (WT) [2]: C (C denotes ≤5-fold)

Cc1cc(C(C)Nc2ccccc2S(N)(=O)=O)c2nc(-c3ccc4c(c3)c(C)cn4C3CCOCC3)c(C)c(=O)n2c1 (centres unmarked)
IC50 (EGF stimulation): 100 to 500 nM
T47D pAKT S473 HTRF IC50 (H1047R): T47D (H1047R) selectivity over SKBR3 (WT) [3]: A (A denotes >20-fold)

CNc1nc2cc(-c3cc(=O)n4cc(C)cc([C@@H](C)Nc5ccccc5C(=O)O)c4n3)ccc2o1
IC50 [1]: 100 to 500 nM
T47D pAKT S473 HTRF IC50 (H1047R): T47D (H1047R) selectivity over SKBR3 (WT) [2]: A (A denotes >20-fold)

Cc1cc([C@@H](C)Nc2ccccc2C(=O)O)c2nc(N3CCO[C@H](C)C3)cc(=O)n2c1
IC50 [1]: > 2000 nM
T47D pAKT S473 HTRF IC50 (H1047R): T47D (H1047R) selectivity over SKBR3 (WT) [2]: C (C denotes ≤5-fold)

Cc1cc(C(C)Nc2ccccc2C(=O)O)c2nc(N3CCC(S(C)(=O)=O)CC3)cc(=O)n2c1 (centres unmarked)
IC50 [1]: > 2000 nM
T47D pAKT S473 HTRF IC50 (H1047R): T47D (H1047R) selectivity over SKBR3 (WT) [2]: C (C denotes ≤5-fold)

Cc1cc([C@@H](C)Nc2ccccc2C(=O)O)c2nc(-c3ccc4c(n3)c(C)nn4C)cc(=O)n2c1
IC50 (EGF stimulation): > 2000 nM
T47D pAKT S473 HTRF IC50 (H1047R): T47D (H1047R) selectivity over SKBR3 (WT) [3]: C (C denotes ≤5-fold)

Cc1cc([C@H](C)Nc2ccccc2C(=O)O)c2nc(-c3ccc4c(c3)c(C)nn4C3CC3)cc(=O)n2c1
IC50 (EGF stimulation): > 2000 nM
T47D pAKT S473 HTRF IC50 (H1047R): T47D (H1047R) selectivity over SKBR3 (WT) [3]: C (C denotes ≤5-fold)

Cc1cc([C@@H](C)Nc2ccccc2C(N)=O)c2nc(-c3cccc(C(F)F)c3)c(C)c(=O)n2c1
IC50 (EGF stimulation): 100 to 500 nM
T47D pAKT S473 HTRF IC50 (H1047R): T47D (H1047R) selectivity over SKBR3 (WT) [2]: A (A denotes >20-fold)

Cc1cc([C@H](C)Nc2ccccc2S(N)(=O)=O)c2nc(C3CCOCC3)c(C)c(=O)n2c1
IC50 (EGF stimulation): < 100 nM
T47D pAKT S473 HTRF IC50 (H1047R): T47D (H1047R) selectivity over SKBR3 (WT) [2]: A (A denotes >20-fold)

Cc1cc([C@@H](C)Nc2ccccc2S(N)(=O)=O)c2nc(-c3cnc4c(c3)c(C)cn4C)c(C)c(=O)n2c1
IC50 (EGF stimulation): 100 to 500 nM
T47D pAKT S473 HTRF IC50 (H1047R): T47D (H1047R) selectivity over SKBR3 (WT) [2]: A (A denotes >20-fold)

Cc1cc([C@H](C)Nc2ccccc2S(N)(=O)=O)c2nc(N3Cc4ccccc4C3)c(C)c(=O)n2c1
IC50 (EGF stimulation): > 2000 nM
T47D pAKT S473 HTRF IC50 (H1047R): T47D (H1047R) selectivity over SKBR3 (WT) [3]: C (C denotes ≤5-fold)

Cc1cc(C(C)Nc2ccccc2C(=O)O)c2nc(-c3ccc(CN4CCN(C(=O)C5CC5)CC4)c(F)c3)cc(=O)n2c1 (centres unmarked)
IC50 [1]: 100 to 500 nM
T47D pAKT S473 HTRF IC50 (H1047R): T47D (H1047R) selectivity over SKBR3 (WT) [2]: A (A denotes >20-fold)

Cc1cc([C@H](C)Nc2ccccc2C(=O)O)c2nc(-c3ccc4c(c3)c(C)c(C)n4C)cc(=O)n2c1
IC50 (EGF stimulation): > 2000 nM
T47D pAKT S473 HTRF IC50 (H1047R): T47D (H1047R) selectivity over SKBR3 (WT) [3]: C (C denotes ≤5-fold)

Cc1cc([C@H](C)Nc2ccccc2C(=O)O)c2nc(N3CCN(C)CC3)cc(=O)n2c1
IC50 [1]: > 2000 nM
T47D pAKT S473 HTRF IC50 (H1047R): T47D (H1047R) selectivity over SKBR3 (WT) [2]: C (C denotes ≤5-fold)

Cc1cc(C(C)Nc2ccccc2C(=O)O)c2nc(N3CCC(C(N)=O)CC3)cc(=O)n2c1 (centres unmarked)
IC50 [1]: > 2000 nM
T47D pAKT S473 HTRF IC50 (H1047R): T47D (H1047R) selectivity over SKBR3 (WT) [2]: C (C denotes ≤5-fold)

Cc1cc(C(C)Nc2ccccc2S(N)(=O)=O)c2nc(-c3ccc4c(c3)c(C)cn4C3CC3)c(C)c(=O)n2c1 (centres unmarked)
IC50 (EGF stimulation): > 2000 nM
T47D pAKT S473 HTRF IC50 (H1047R): T47D (H1047R) selectivity over SKBR3 (WT) [3]: C (C denotes ≤5-fold)

C=CC(=O)Nc1cc(C(C)Nc2ccccc2C(=O)O)c2nc(-c3ccc(F)cc3)cc(=O)n2c1 (centres unmarked)
IC50 (EGF stimulation): > 2000 nM
T47D pAKT S473 HTRF IC50 (H1047R): T47D (H1047R) selectivity over SKBR3 (WT) [3]: C (C denotes ≤5-fold)

Cc1cc([C@H](C)Nc2ccncc2C(=O)O)c2nc(N3CCOCC3)cc(=O)n2c1 (single isomer, unassigned)
IC50 [1]: > 2000 nM
T47D pAKT S473 HTRF IC50 (H1047R): T47D (H1047R) selectivity over SKBR3 (WT) [2]: C (C denotes ≤5-fold)

Cc1cc([C@@H](C)Nc2ccccc2C(=O)O)c2nc(-c3ccc(C(C)(F)F)cc3)cc(=O)n2c1
IC50 [1]: 100 to 500 nM
T47D pAKT S473 HTRF IC50 (H1047R): T47D (H1047R) selectivity over SKBR3 (WT) [2]: A (A denotes >20-fold)

Cc1cc([C@H](C)Nc2ccccc2-c2cc(O)no2)c2nc(-c3cccc(F)c3)c(C)c(=O)n2c1 (single isomer, unassigned)
IC50 (EGF stimulation): 100 to 500 nM
T47D pAKT S473 HTRF IC50 (H1047R): T47D (H1047R) selectivity over SKBR3 (WT) [2]: A (A denotes >20-fold)

Cc1cc([C@@H](C)Nc2ccccc2C(=O)O)c2nc(-c3cc(C(N)=O)c4[nH]ccc4c3)cc(=O)n2c1
IC50 [1]: 100 to 500 nM
T47D pAKT S473 HTRF IC50 (H1047R): T47D (H1047R) selectivity over SKBR3 (WT) [2]: A (A denotes >20-fold)

Cc1cc([C@@H](C)Nc2ccccc2C(=O)O)c2nc(-c3c(C)ccc4[nH]ncc34)cc(=O)n2c1
IC50 [1]: > 2000 nM
T47D pAKT S473 HTRF IC50 (H1047R): T47D (H1047R) selectivity over SKBR3 (WT) [2]: C (C denotes ≤5-fold)

Cc1cc(C(C)Nc2ccc(Cl)nc2C(=O)O)c2nc(-c3cccc(F)c3)c(C)c(=O)n2c1 (centres unmarked)
IC50 (EGF stimulation): 100 to 500 nM
T47D pAKT S473 HTRF IC50 (H1047R): T47D (H1047R) selectivity over SKBR3 (WT) [2]: A (A denotes >20-fold)

CC(=O)N1CCN(Cc2ccc(-c3nc4c(C(C)Nc5ccccc5C(=O)O)cc(C)cn4c(=O)c3C)cc2F)CC1 (centres unmarked)
IC50 (EGF stimulation): 100 to 500 nM
T47D pAKT S473 HTRF IC50 (H1047R): T47D (H1047R) selectivity over SKBR3 (WT) [2]: A (A denotes >20-fold)

Source: US20260132129A1
